This is a selection; strong and weak results do not stand in their true shares. Active and inactive are the calls of the source.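 The calls were made as follows: active = activation above the mean over all tested compounds plus 3 SD (cut at about 0.9% in these data); inactive = the rest.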
test system: Nuclear hormone receptor DAF-12 (Strongyloides stercoralis); assay: ssDAF-12 driven luciferase reporter activation – cell-based, luminescence, HEK293, GRIP1 co-expression, lit1-tk-luc, primary screen (AID 652126); details: HEK293 ssDAF-12/GRIP1 lit1-tk-luc reporter, at 6.8 µM, active compounds read high, % of 3 µM dafachronic acid response;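 also: 0% = DMSO-only wells and 100% = 3 µM delta7-dafachronic acid wells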

SMILES | activation
CCOC(=O)Nc1cccc([As](=O)(O)O)c1 | inactive: -0.57%
O=[N+]([O-])c1ccc(Nc2ccc(Oc3ccc([N+](=O)[O-])cc3[N+](=O)[O-])cc2)c([N+](=O)[O-])c1 | inactive: -1.36%
Cc1cc(SC(NC=O)C(Cl)(Cl)Cl)ncn1 (stereo not given) | inactive: -1.19%
O=P(Nc1ccccn1)(c1cccc2ccccc12)c1cccc2ccccc12 | inactive: -1.06%
CC1CCNP(=O)(N(CCCl)CCCl)O1 (stereo not given) | inactive: -1.44%
O=C(O)C(O)c1ccc(N(CCCl)CCCl)cc1 (stereo not given) | inactive: -0.34%
CCOC(=O)Nc1ccc([As](=O)(O)O)c(O)c1 | inactive: -1.23%
Cc1cc(SC(NC(=O)c2ccccc2)C(Cl)(Cl)Cl)nc(C(C)C)n1 (stereo not given) | inactive: -0.88%
CCCCOc1ccc(C(=O)NCC2(N3CCCCC3)CCCCC2)cc1OC | inactive: -1.21%
COP(=O)(OC)N1CC1c1ccccc1 (stereo not given) | inactive: -1.24%
CCOC(=O)c1ccc(NC(=O)C(C)(CCl)SC)cc1 (stereo not given) | inactive: 0.49%
O=C(OC1CN2CCC1CC2)c1cccc([N+](=O)[O-])c1 (stereo not given) | inactive: -1%
CCC(C)N(CC(C)C)C(=S)SC(NC(C)=O)C(Cl)(Cl)Cl (stereo not given) | inactive: -1.12%
COC(=O)C1(C)COP(=O)(N2CCCC2)OC1 (stereo not given) | inactive: -0.23%
COP1(=S)c2c(C)nn(CCC#N)c2N=C(c2ccc(F)cc2)N1C (stereo not given) | inactive: -1.71%
O=C(Nc1ccncc1[N+](=O)[O-])c1ccc([N+](=O)[O-])cc1[N+](=O)[O-] | inactive: -0.92%
O=C(COc1ccccc1)OC1CN2CCC1CC2 (stereo not given) | inactive: -1.25%
O=C(O)C(=O)c1ccc(N(CCCl)CCCl)cc1 | inactive: -0.8%
COc1ccc(N/C(=N/P(=O)(N2CCOCC2)N2CCOCC2)N2CCOCC2)cc1 | inactive: -1.44%
O=[N+]([O-])c1cc(Oc2ccc([N+](=O)[O-])cc2C(F)(F)F)cc([N+](=O)[O-])c1 | inactive: -0.71%
Cc1cc(=O)[nH]c(N[N+](=O)[O-])n1 | inactive: -1.18%
O=C(OC1CN2CCC1CC2)C12CC3CC(CC(C3)C1)C2 (stereo not given) | inactive: -0.8%
Cc1c2c(nc3ccccc13)SC(C(Cl)Cl)C2 (stereo not given) | inactive: -1.82%
COc1cc(I)ccc1[As](=O)(O)O | inactive: 0.02%
COc1ccc2nc(NP(=O)(c3ccccc3)c3ccccc3)sc2c1 | inactive: -1.53%

SMILES | activation
O=P1(N(CCCl)CCCl)Nc2ccccc2N1 | inactive: 0.53%
O=P1(N(CCCl)CCCl)OCCCN1CCCl (stereo not given) | inactive: -0.52%
CC(C)c1ccc(OP(=O)(Nc2ccccn2)Oc2ccccc2F)cc1 (stereo not given) | inactive: -1.16%
COC(=O)C1(C)COP(=O)(N2CCCCCC2)OC1 (stereo not given) | inactive: -0.4%
ClCCSc1nnc(-c2cccnc2)o1 | inactive: -0.03%
O=C(OC1CN2CCC1CC2)c1cccc2[nH]cnc12 (stereo not given) | inactive: -0.76%
CCN(CC)C(=S)SC(NC=O)C(Cl)(Cl)Cl (stereo not given) | inactive: -0.14%
CC(C)NC(=O)NP(=O)(Oc1ccccc1)Oc1ccccc1 | inactive: -0.64%
COc1cc(C(=O)NCC2(N3CCOCC3)CCCCC2)ccc1OCC(C)C | inactive: -1.09%
O=[N+]([O-])c1ccc(-c2cc([N+](=O)[O-])c(O)c([N+](=O)[O-])c2)cc1 | inactive: -1.59%
C[As](=O)(O)c1cccc(C(=O)O)c1 | inactive: 0.69%
O=[As](O)(c1ccc(O)cc1)c1ccccc1O | inactive: -1.46%
Cc1ccc2nc3c(c(C)c2c1)CC(C(Cl)Cl)S3 (stereo not given) | inactive: -0.21%
Cc1ccc(OP(=O)(Nc2ccc([N+](=O)[O-])cn2)Oc2ccc(C)cc2)cc1 | inactive: -1.46%
[N-]=[N+]=NC1CCCCC1NC(=O)c1cc([N+](=O)[O-])cc([N+](=O)[O-])c1 (stereo not given) | inactive: -1.02%
NC(=O)Nc1ccc([As](=O)(O)O)cc1 | inactive: -1.4%
CN(C(=O)Cc1ccc(Cl)c(Cl)c1)[C@H]1CC[C@@]2(CCCO2)C[C@@H]1N1CCCC1 | inactive: 0.01%
CN(C)C(=O)c1cc([N+](=O)[O-])cc2c1-c1c(cc([N+](=O)[O-])cc1[N+](=O)[O-])C2=O | inactive: -0.33%
O=[N+]([O-])c1ccc2c(c1)nnn2O | inactive: -1.21%
CCOP1(=S)c2c(C)nn(CCC#N)c2N=C(c2ccc(F)cc2)N1C (stereo not given) | inactive: -1.58%
CN(C(=O)Cc1ccccc1)[C@@H]1CC[C@]2(CCCO2)C[C@H]1N1CCCC1 | inactive: 0.69%
N#CCCN(C(=O)COC(=O)C(O)(c1ccccc1)c1ccccc1)c1ccc(F)cc1 | inactive: -1.05%
O=P(Nc1nccs1)(Oc1ccccc1)Oc1ccccc1 | inactive: -0.65%
CCOP1(=S)c2c(C)nn(CCC#N)c2N=C(c2ccccc2F)N1C (stereo not given) | inactive: -1.45%
O=C(O)COc1ccc([As](=O)(O)O)cc1[N+](=O)[O-] | inactive: -1.5%

SMILES | activation
Nc1ccccc1[As](=O)(O)c1ccccc1 | inactive: -0.93%
CCCOP(=S)(Nc1nc(N)cc(=O)[nH]1)OCCC | inactive: -0.85%
Nc1cccc2c([As](=O)(O)O)cccc12 | inactive: -0.76%
Cc1ccc(NCCc2c([N+](=O)[O-])cc([N+](=O)[O-])cc2[N+](=O)[O-])cc1 | inactive: -0.53%
CCOP(=O)(Nc1cccc2ccccc12)OCC | inactive: -0.86%
COc1cc(C2NCCC3(OCCO3)C2(C)C)cc(OC)c1OC (stereo not given) | inactive: -1.42%
CS(=O)(=O)c1ccc(Cl)c(NC(=O)COC(=O)C(O)(c2ccccc2)c2ccccc2)c1 | inactive: -0.96%
COc1cc(C(=O)NCC2(N3CCOCC3)CCCCC2)cc(Cl)c1OC(C)C | inactive: -0.84%
O=[As](O)(O)c1cccnc1 | inactive: -1.27%
O=C(OC1CN2CCC1CC2)c1ccc(Cl)cc1 (stereo not given) | inactive: -1.06%
O=[As](O)(c1cccc(O)c1)c1cccc(O)c1 | inactive: -1.55%
Cc1cccc(OCC(=O)OC2CN3CCC2CC3)c1 (stereo not given) | inactive: -1.19%
COc1ccccc1CNC(=O)COC(=O)C(O)(c1ccccc1)c1ccccc1 | inactive: -0.87%
CC1(CBr)Cn2c(nc3ccccc3c2=O)S1 (stereo not given) | inactive: -1.59%
CN(C(=O)Cc1ccc(Cl)c(Cl)c1)C1CCCC[C@@H]1N1CCCC1 (stereo not given in full) | inactive: -0.55%
CN(C(=O)Cc1ccc(Cl)c(Cl)c1)[C@@H]1CCCC[C@H]1N1CCCC1 | inactive: -0.53%
CC(C)/C=N\N=C(\N)N[N+](=O)[O-] | inactive: -0.38%
CN(CCCl)Cc1cc(Cl)c(NC2=NCCN2)c(Cl)c1 | inactive: -1.12%
CCOP(=O)(Nc1ccc(C)cn1)OCC | inactive: -1.54%
CCOP(=O)(NC(=NC(C)c1ccccc1)NC(C)c1ccccc1)OCC (stereo not given) | inactive: -0.92%
CCC1=CC2Cc3nc4ccc(Cl)cc4c(N)c3C(C1)C2 (stereo not given) | inactive: -1.36%
O=P1(Nc2ccccn2)COc2ccccc2OC1 | inactive: -0.98%
CC(C)(C)C(=O)NC(Sc1ncccn1)C(Cl)(Cl)Cl (stereo not given) | inactive: -0.29%
Clc1n[nH]nc1-c1nn[nH][15n]1 | inactive: -1.56%
O=P1(N(CCCl)CCCl)NCCC(C(F)(F)F)O1 (stereo not given) | inactive: -1.57%

SMILES | activation
O=P1(Nc2ncccn2)COc2ccccc2OC1 | inactive: -1.01%
Cc1ccc(S(=O)(=O)N(CCCN)CCCc2c(C)nc(N)[nH]c2=O)cc1 | inactive: -0.27%
NS(=O)(=O)c1cccc(NC(=O)COC(=O)C(O)(c2ccccc2)c2ccccc2)c1 | inactive: -1.88%
O=P1(Nc2ccc(Br)cn2)COc2ccccc2OC1 | inactive: -1.3%
O=[As](O)(c1cccs1)c1cccs1 | inactive: -1.04%
Cc1ccc(OCC(=O)OC2CN3CCC2CC3)cc1 (stereo not given) | inactive: -1.2%
Nc1cccc([As](=O)(O)c2ccccc2)c1 | inactive: -1.23%
Cc1ccc(C(=O)OC2CN3CCC2CC3)cc1 (stereo not given) | inactive: -1.32%
CC1CCC(C(C)C)C(OP(=O)(Nc2ccccn2)c2ccccc2)C1 (stereo not given) | inactive: -1.3%
Cc1nn(-c2ccccc2)c2c1P(=O)(N1CCOCC1)N(C)C(c1ccccc1)=N2 (stereo not given) | inactive: -1.36%
CCCC1OP(=O)(Nc2ccccc2)OCC1CC (stereo not given) | inactive: -1.08%
O=C(/C=C/c1ccccc1)OC1CN2CCC1CC2 (stereo not given) | inactive: -1.13%
CN(C)C1(CNC(=O)c2ccc(S(C)(=O)=O)cc2)CCCCC1 | inactive: -1.43%
O=[N+]([O-])c1ncn(CCn2cnc([N+](=O)[O-])n2)n1 | inactive: -1.57%
CC(=O)NC(SC(=S)N(C)C)C(Cl)(Cl)Cl (stereo not given) | inactive: -1.38%
O=[As](O)(c1ccccc1)c1ccc(O)cc1 | inactive: -1.7%
Nc1ccc([As](=O)(O)c2ccc([N+](=O)[O-])cc2)cc1 | inactive: -1.64%
C(Cc1nn[nH]n1)Cc1nn[nH]n1 | inactive: -1.16%
C/C(N)=N\P(=O)(OCc1ccccc1)OCc1ccccc1 | inactive: -0.47%
O=C(OC1CN2CCC1CC2)c1cccc(Cl)c1 (stereo not given) | inactive: -1.39%
Nc1ccc(CCCCOc2ccccc2)cc1 | inactive: -0.58%
COc1ccc(N)c([N+](=O)[O-])c1[N+](=O)[O-] | inactive: -1.26%
CN(C)C1(CNC(=O)c2ccc(Cl)c(S(N)(=O)=O)c2)CCCCC1 | inactive: -1.13%
O=P(Nc1ccccn1)(c1ccc(Br)cc1)c1ccc(Br)cc1 | inactive: -1.38%
C[C@H]1OP(=O)(Oc2ccccc2)[C@H](O)[C@H](O)[C@H]1N=[N+]=[N-] (stereo not given in full) | inactive: -1.24%

— PubChem BioAssay AID652126 (The Scripps Research Institute Molecular Screening Center, 2013)
